# Test results published in PubChem BioAssay AID894 (National Center for Advancing Translational Sciences (NCATS), 2007).
# Chains of the proteins cited; added tags and fusions are not shown. Lines headed by an entry give the natural chain unless they say otherwise; changes in a name come on top.
# UniProt P15428: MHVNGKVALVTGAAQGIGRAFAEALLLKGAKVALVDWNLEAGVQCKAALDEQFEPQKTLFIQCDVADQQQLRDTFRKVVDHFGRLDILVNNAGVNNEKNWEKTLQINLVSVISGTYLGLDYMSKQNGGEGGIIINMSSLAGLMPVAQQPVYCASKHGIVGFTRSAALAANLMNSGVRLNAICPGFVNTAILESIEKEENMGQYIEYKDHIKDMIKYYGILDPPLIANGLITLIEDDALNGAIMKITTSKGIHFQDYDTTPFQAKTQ
# Only a part is listed here, and it is no random draw. Results filed as inconclusive are left out. The source made the active and inactive calls. The call rests on the fitted dose curve; in most records, active means well fitted inhibition curve with a large enough effect (not every such curve was filed as active); inconclusive means small, poorly fitted or top-dose-only effect, or another doubt; inactive means no such curve, though single readings can be large or run the other way.
# Target: 15-hydroxyprostaglandin dehydrogenase [NAD(+)] (Homo sapiens) (UniProt P15428)
# Test: qHTS Assay for Inhibitors of HPGD (15-Hydroxyprostaglandin Dehydrogenase)
# Details: purified HPGD, NADH fluorescence kinetic, PGE2 substrate
# Potency means the concentration at half of the fitted maximal effect.
row,SMILES,Potency
1,N#Cc1ccccc1CSc1nc2ncc(Br)cc2[nH]1,active: 224 nM
2,CC1(COc2ccc(C[C@H]3SC(=O)NC3=O)cc2)CCCCC1,active: 4470 nM
